In this test the test system is THP-1. The experiment in a line: Host cell toxicity: THP-1 host nuclei counts in the image-based assay. The conditions noted are these: ratio between parasite GI50 and THP-1 GI50.

`Oc1c(Cl)cc(Cl)c(Cl)c1Cc1c(O)c(Cl)cc(Cl)c1Cl` [Hexachlorophene]: the Selectivity was found to be 3.62.

The record behind these values is article PMC3139667, “A Screen against Leishmania Intracellular Amastigotes: Comparison to a Promastigote Screen and Identification of a Host Cell-Specific Hit” (PLoS Neglected Tropical Diseases, 2011).
